Laboratory results published in patent US20210395313A1, “PEPTIDE PAC1 ANTAGONISTS” (AMGEN INC., priority 2017, published 2021).

Target: T1, rat PAC1 receptor (Rattus norvegicus, UniProt P32215)
T1 construct: SHSY-5Y (human neuroblastoma cell line) and RG-2 (rat glioma cell line) cells endogenously express human and rat PAC1 receptors, respectively; endogenous in cells; host or cells: RG-2 rat glioma cells
T1 sequence (P32215 20-523): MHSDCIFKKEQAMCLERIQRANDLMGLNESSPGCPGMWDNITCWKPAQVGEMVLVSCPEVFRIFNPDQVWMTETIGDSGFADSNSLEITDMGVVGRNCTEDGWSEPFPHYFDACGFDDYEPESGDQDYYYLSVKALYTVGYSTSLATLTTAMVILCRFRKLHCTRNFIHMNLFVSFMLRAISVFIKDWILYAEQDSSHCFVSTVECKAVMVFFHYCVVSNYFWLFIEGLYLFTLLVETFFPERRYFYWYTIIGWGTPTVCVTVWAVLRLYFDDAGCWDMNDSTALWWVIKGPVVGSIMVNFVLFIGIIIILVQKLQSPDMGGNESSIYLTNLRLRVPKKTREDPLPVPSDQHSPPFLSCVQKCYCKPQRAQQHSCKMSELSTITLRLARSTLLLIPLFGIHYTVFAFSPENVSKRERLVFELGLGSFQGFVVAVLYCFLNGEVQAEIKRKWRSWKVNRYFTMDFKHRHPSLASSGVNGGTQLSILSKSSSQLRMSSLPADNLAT
Test: LANCE Ultra cAMP accumulation antagonist assay in RG-2 cells;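 also: RG-2 rat glioma cells endogenously expressing PAC1, test peptide preincubated 30 min, then PAC1 agonist added at its EC80 for 15 min, cAMP accumulation read by LANCE Ultra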
Format: cell-based

Compound: CC[C@H](C)[C@H](NC(=O)[C@H](C)NC(=O)[C@H](CCCCN)NC(=O)[C@H](CCCNC(=N)N)NC(=O)[C@H](Cc1ccccc1)NC(=O)[C@H](CCC(N)=O)NC(=O)[C@@H]1CSSC[C@H](N)C(=O)N[C@@H](CC(=O)O)C(=O)N[C@@H](C)C(=O)N[C@@H]([C@@H](C)O)C(=O)N1)C(=O)N[C@@H](CC(=O)O)C(=O)N[C@@H](CC(=O)O)C(=O)N[C@H]1CSSC[C@@H](C(=O)N[C@@H](CCSC)C(=O)N[C@@H](CCCCN)C(=O)N[C@@H](CCC(N)=O)C(=O)N[C@@H](CCCCN)C(=O)N[C@@H](CCCCN)C(=O)N[C@@H](CCCCN)C(=O)N[C@@H](CCC(=O)O)C(=O)N[C@@H](Cc2ccccc2)C(=O)N[C@@H](CCCCN)C(=O)N[C@@H](C)C(=O)NCC(N)=O)NC(=O)C(C)(C)NC(=O)[C@H](CCCCN)NC(=O)[C@H](Cc2ccccc2)NC(=O)[C@H](C(C)C)NC(=O)[C@H](CO)NC(=O)CNC(=O)[C@@H]2C=CCN2C(=O)[C@H](C(C)C)NC(=O)[C@H](CC(N)=O)NC(=O)[C@H](CO)NC(=O)[C@H](Cc2c[nH]cn2)NC(=O)[C@H](Cc2c[nH]cn2)NC(=O)[C@H](C)NC(=O)[C@H](CCC(N)=O)NC(=O)[C@H](CCCCN)NC(=O)[C@H](CCC(N)=O)NC1=O [compound 188]
- IC50: 0.01 to 1 nM

Compound: CC[C@H](C)[C@H](NC(=O)[C@H](C)NC(=O)[C@H](CCCCN)NC(=O)[C@H](CCCNC(=N)N)NC(=O)[C@H](Cc1ccccc1)NC(=O)[C@H](CCC(N)=O)NC(=O)[C@@H]1CSSC[C@H](N)C(=O)N[C@@H](CC(=O)O)C(=O)N[C@@H](C)C(=O)N[C@@H]([C@@H](C)O)C(=O)N1)C(=O)N[C@@H](CC(=O)O)C(=O)N[C@@H](CC(=O)O)C(=O)N[C@H]1CSSC[C@@H](C(=O)N[C@@H](CCSC)C(=O)N[C@@H](CCCCN)C(=O)N[C@@H](CCC(N)=O)C(=O)N[C@@H](CCCCN)C(=O)N[C@@H](CCCCN)C(=O)N[C@@H](CCCCN)C(=O)N[C@@H](CCC(=O)O)C(=O)N[C@@H](Cc2c[nH]c3ccccc23)C(=O)N[C@@H](CCCCN)C(=O)N[C@@H](C)C(=O)N[C@@H](CC(N)=O)C(N)=O)NC(=O)C(C)(C)NC(=O)[C@H](CCCCN)NC(=O)[C@H](Cc2ccccc2)NC(=O)[C@H](C(C)C)NC(=O)[C@H](CO)NC(=O)CNC(=O)[C@@H]2CCCN2C(=O)[C@H](C(C)C)NC(=O)[C@H](CC(N)=O)NC(=O)[C@H](CO)NC(=O)[C@H](Cc2c[nH]cn2)NC(=O)[C@H](Cc2c[nH]cn2)NC(=O)[C@H](C)NC(=O)[C@H](CCC(N)=O)NC(=O)[C@H](CCCCN)NC(=O)[C@H](CCC(N)=O)NC1=O [compound 166]
- IC50: 0.01 to 1 nM

Compound: CC[C@H](C)[C@H](NC(=O)[C@H](C)NC(=O)[C@H](CCCCN)NC(=O)[C@H](CCCNC(=N)N)NC(=O)[C@H](Cc1ccccc1)NC(=O)[C@H](CCC(N)=O)NC(=O)[C@@H]1CSSC[C@H](N)C(=O)N[C@@H](CC(=O)O)C(=O)N[C@@H](C)C(=O)N[C@@H]([C@@H](C)O)C(=O)N1)C(=O)N[C@@H](CC(=O)O)C(=O)N[C@@H](CC(=O)O)C(=O)N[C@H]1CSSC[C@@H](C(=O)N[C@@H](CCSC)C(=O)N[C@@H](CCCCN)C(=O)N[C@@H](CCC(N)=O)C(=O)N[C@@H](CCCCN)C(=O)N[C@@H](CCCCN)C(=O)N[C@@H](CCCCN)C(=O)N[C@@H](CCC(=O)O)C(=O)N[C@@H](Cc2ccccc2)C(=O)N[C@@H](CCCCN)C(=O)N[C@@H](C)C(=O)NCC(N)=O)NC(=O)C(C)(C)NC(=O)[C@H](CCCCN)NC(=O)[C@H](Cc2ccccc2)NC(=O)[C@H](CO)NC(=O)[C@H](CC(N)=O)NC(=O)CNC(=O)[C@@H]2CCCN2C(=O)[C@H](C(C)C)NC(=O)[C@H](CC(N)=O)NC(=O)[C@H](CO)NC(=O)[C@H](Cc2c[nH]cn2)NC(=O)[C@H](Cc2c[nH]cn2)NC(=O)[C@H](C)NC(=O)[C@H](CCC(N)=O)NC(=O)[C@H](CCCCN)NC(=O)[C@H](CCC(N)=O)NC1=O [compound 186]
- IC50: 0.01 to 1 nM

Compound: CC[C@H](C)[C@H](NC(=O)[C@H](C)NC(=O)[C@H](CCCCN)NC(=O)[C@H](CCCNC(=N)N)NC(=O)[C@H](Cc1ccccc1)NC(=O)[C@H](CCC(N)=O)NC(=O)[C@@H]1CSSC[C@H](N)C(=O)N[C@@H](CC(=O)O)C(=O)N[C@@H](C)C(=O)N[C@@H]([C@@H](C)O)C(=O)N1)C(=O)N[C@@H](CC(=O)O)C(=O)N[C@@H](CC(=O)O)C(=O)N[C@H]1CSSC[C@@H](C(=O)N[C@@H](CCSC)C(=O)N[C@@H](CCCCN)C(=O)N[C@@H](CCC(N)=O)C(=O)N[C@@H](CCCCN)C(=O)N[C@@H](CCCCN)C(=O)N[C@@H](CCCCN)C(=O)N[C@@H](CCC(=O)O)C(=O)N[C@@H](Cc2ccccc2)C(=O)N[C@@H](CCCCN)C(=O)N[C@@H](C)C(=O)NCC(N)=O)NC(=O)C(C)(C)NC(=O)[C@H](CCCCN)NC(=O)[C@H](Cc2ccccc2)NC(=O)[C@H](C(C)C)NC(=O)[C@H](CC(=O)O)NC(=O)CNC(=O)[C@@H]2CCCN2C(=O)[C@H](C(C)C)NC(=O)[C@H](CC(N)=O)NC(=O)[C@H](CO)NC(=O)[C@H](Cc2c[nH]cn2)NC(=O)[C@H](Cc2c[nH]cn2)NC(=O)[C@H](C)NC(=O)[C@H](CCC(N)=O)NC(=O)[C@H](CCCCN)NC(=O)[C@H](CCC(N)=O)NC1=O [compound 200]
- IC50: 0.01 to 1 nM

Compound: CC[C@H](C)[C@H](NC(=O)[C@H](C)NC(=O)[C@H](CCCCN)NC(=O)[C@H](CCCNC(=N)N)NC(=O)[C@H](Cc1ccccc1)NC(=O)[C@H](CCC(N)=O)NC(=O)[C@@H]1CSSC[C@H](N)C(=O)N[C@@H](CC(=O)O)C(=O)N[C@@H](C)C(=O)N[C@@H]([C@@H](C)O)C(=O)N1)C(=O)N[C@@H](CC(=O)O)C(=O)N[C@@H](CC(=O)O)C(=O)N[C@H]1CSSC[C@@H](C(=O)N[C@@H](CCSC)C(=O)N[C@@H](CCCCN)C(=O)N[C@@H](CCC(N)=O)C(=O)N[C@@H](CCCCN)C(=O)N[C@@H](CCCCN)C(=O)N[C@@H](CCCCN)C(=O)N[C@@H](CCC(=O)O)C(=O)N[C@@H](Cc2ccccc2)C(=O)N[C@@H](CCCCN)C(=O)N[C@@H](C)C(=O)NCC(N)=O)NC(=O)C(C)(C)NC(=O)[C@H](CCCCN)NC(=O)[C@H](Cc2ccccc2)NC(=O)[C@H](C(C)C)NC(=O)[C@H](CC(N)=O)NC(=O)CNC(=O)[C@@H]2CCCN2C(=O)[C@H](C(C)C)NC(=O)[C@H](CC(N)=O)NC(=O)[C@H](CO)NC(=O)[C@H](Cc2c[nH]cn2)NC(=O)[C@H](Cc2c[nH]cn2)NC(=O)[C@H](C)NC(=O)[C@H](CCC(N)=O)NC(=O)[C@H](CCCCN)NC(=O)[C@H](CCC(N)=O)NC1=O [compound 208]
- IC50: 0.01 to 1 nM

Compound: CC[C@H](C)[C@H](NC(=O)[C@H](C)NC(=O)[C@H](CCCCN)NC(=O)[C@H](CCCNC(=N)N)NC(=O)[C@H](Cc1ccccc1)NC(=O)[C@H](CCC(N)=O)NC(=O)[C@@H]1CSSC[C@H](N)C(=O)N[C@@H](CC(=O)O)C(=O)N[C@@H](C)C(=O)N[C@@H]([C@@H](C)O)C(=O)N1)C(=O)N[C@@H](CC(=O)O)C(=O)N[C@@H](CC(=O)O)C(=O)N[C@H]1CSSC[C@@H](C(=O)N[C@@H](CCSC)C(=O)N[C@@H](CCCCN)C(=O)N[C@@H](CCC(N)=O)C(=O)N[C@@H](CCCCN)C(=O)N[C@@H](CCCCN)C(=O)N[C@@H](CCCCN)C(=O)N[C@@H](CCC(=O)O)C(=O)N[C@@H](Cc2ccccc2)C(=O)N[C@@H](CCCCN)C(=O)N[C@@H](C)C(=O)NCC(N)=O)NC(=O)C(C)(C)NC(=O)[C@H](CCCCN)NC(=O)[C@H](Cc2ccccc2)NC(=O)[C@H](C(C)C)NC(=O)[C@H](CO)NC(=O)[C@H](CC(N)=O)NC(=O)[C@@H]2CCCN2C(=O)[C@H](C(C)C)NC(=O)[C@H](CC(N)=O)NC(=O)[C@H](CO)NC(=O)[C@H](Cc2c[nH]cn2)NC(=O)[C@H](Cc2c[nH]cn2)NC(=O)[C@H](C)NC(=O)[C@H](CCC(N)=O)NC(=O)[C@H](CCCCN)NC(=O)[C@H](CCC(N)=O)NC1=O [compound 193]
- IC50: 0.01 to 1 nM

Compound: CC[C@H](C)[C@H](NC(=O)[C@H](C)NC(=O)[C@H](CCCCN)NC(=O)[C@H](CCCNC(=N)N)NC(=O)[C@H](Cc1ccccc1)NC(=O)[C@H](CCC(N)=O)NC(=O)[C@@H]1CSSC[C@H](N)C(=O)N[C@@H](CC(=O)O)C(=O)N[C@@H](C)C(=O)N[C@@H]([C@@H](C)O)C(=O)N1)C(=O)N[C@@H](CC(=O)O)C(=O)N[C@@H](CC(=O)O)C(=O)N[C@H]1CSSC[C@@H](C(=O)N[C@@H](CCSC)C(=O)N[C@@H](CCCCN)C(=O)N[C@@H](CCC(N)=O)C(=O)N[C@@H](CCCCN)C(=O)N[C@@H](CCCCN)C(=O)N[C@@H](CCCCN)C(=O)N[C@@H](CCC(=O)O)C(=O)N[C@@H](Cc2ccccc2)C(=O)N[C@@H](CCCCN)C(=O)N[C@@H](C)C(=O)N[C@@H](CC(N)=O)C(=O)O)NC(=O)C(C)(C)NC(=O)[C@H](CCCCN)NC(=O)[C@H](Cc2ccccc2)NC(=O)[C@H](C(C)C)NC(=O)[C@H](CO)NC(=O)CNC(=O)[C@@H]2CCCN2C(=O)[C@H](C(C)C)NC(=O)[C@H](CC(N)=O)NC(=O)[C@H](CO)NC(=O)[C@H](Cc2c[nH]cn2)NC(=O)[C@H](Cc2c[nH]cn2)NC(=O)[C@H](C)NC(=O)[C@H](CCC(N)=O)NC(=O)[C@H](CCCCN)NC(=O)[C@H](CCC(N)=O)NC1=O [compound 206]
- IC50: 0.01 to 1 nM
